{"source": "paper PMC3070360", "about": "(Journal of natural products, 2011)", "key": {"HeLa cells": {"test_system": "HeLa cells", "assay": "Cell-based microfilament disruption assay, HeLa", "conditions": "10 nM to 5 μM"}, "NCI 60 cell lines": {"test_system": "NCI 60 cell lines", "assay": "NCI 60 cell line screen, single dose and overall cytotoxicity", "type": "cell-based"}, "Maximum tolerated dose": {"assay": "Maximum tolerated dose", "conditions": "in vivo"}}}
{"substance": "(+)-jasplakinolide Z3 [Compound 11]", "values": [{"measurement": "Divergence between cytotoxicity (HCT-116) and MF activity (HeLa)", "setting": "HeLa cells", "value": 100, "unit": "fold"}]}
{"substance": "jasplakinolide M [Compound 6]", "values": [{"measurement": "Diminished cytotoxicity (summary in the conclusions)", "setting": "NCI 60 cell lines", "value": "≈ 1 uM"}]}
{"substance": "jasplakinolide [Compound 1]", "values": [{"measurement": "MTD (maximum tolerated dose)", "setting": "Maximum tolerated dose", "value": 0.625, "unit": "mg/kg"}]}
